Measurements as given in publication PMC10133546, “Simultaneous determination of multiple components in rat plasma by UHPLC-sMRM for pharmacokinetic studies after oral administration of Qingjin Yiqi Granules” (Frontiers in Pharmacology, 2023).

Key:
[1] = Stability of analytes in rat plasma (auto-sampler, freeze-thaw, room temperature, long-term); settings: for Freeze thaw cycles Accuracy (%): three freeze-thaw cycles; for Room temperature for 24 h Accuracy (%): room temperature 24 h; for Autosampler for 24 h Accuracy (%): autosampler 24 h
[2] = Stability of the working solution (4°C for 1 month); format: physicochemical

SMILES: O=c1cc(-c2ccccc2)oc2cc(O)c(O)c(O)c12 [baicalein]
- Freeze thaw cycles Accuracy (%) ([1]; 50 ng/mL): 96.3%
- Room temperature for 24 h Accuracy (%) ([1]; 100 ng/mL): 95.6%

SMILES: COc1cc(/C=C/C(=O)O)ccc1O [ferulic acid]
- Room temperature for 24 h Accuracy (%) ([1]; 500 ng/mL): 89.2%
- Freeze thaw cycles Accuracy (%) ([1]; 500 ng/mL): 102.0%

SMILES: CC1(C)[C@@H](O[C@H]2O[C@H](C(=O)O)[C@@H](O)[C@H](O)[C@H]2O[C@@H]2O[C@H](C(=O)O)[C@@H](O)[C@H](O)[C@H]2O)CC[C@]2(C)[C@H]3C(=O)C=C4[C@@H]5C[C@@](C)(C(=O)O)CC[C@]5(C)CC[C@@]4(C)[C@]3(C)CC[C@@H]12 [glycyrrhizic acid]
- Room temperature for 24 h Accuracy (%) ([1]; concentration 12.5 ng/mL): 101.0%
- Freeze thaw cycles Accuracy (%) ([1]; concentration 50 ng/mL): 102.0%
- Freeze thaw cycles Accuracy (%) ([1]; concentration 100 ng/mL): 101.0%
- Working solution Accuracy (%) ([2]; concentration 12.5 ng/mL): 101.0%

SMILES: O=c1c(O[C@@H]2O[C@H](CO)[C@H](O)[C@H](O)[C@H]2O)c(-c2ccc(O)c(O)c2)oc2cc(O)cc(O)c12 [hyperoside]
- Room temperature for 24 h Accuracy (%) ([1]; 12.5 ng/mL): 102.0%
- −80°C for 1month Accuracy (%) ([1]; 500 ng/mL, −80°C 1 month): 102.0%
- Working solution Accuracy (%) ([2]; 1.56 ng/mL): 97.6%

SMILES: O=C1C[C@@H](c2ccc(O)cc2)Oc2cc(O)cc(O)c21 [naringenin]
- Autosampler for 24 h Accuracy (%) ([1]; 12.5 ng/mL): 101.0%
- Room temperature for 24 h Accuracy (%) ([1]; 50 ng/mL): 101.0%
- Freeze thaw cycles Accuracy (%) ([1]; 50 ng/mL): 104.0%
- Freeze thaw cycles Accuracy (%) ([1]; 100 ng/mL): 101.0%
- Freeze thaw cycles Accuracy (%) ([1]; 500 ng/mL): 102.0%

SMILES: O=C(O)[C@H]1O[C@@H](Oc2cc3oc(-c4ccc(O)cc4)cc(=O)c3c(O)c2O)[C@H](O)[C@@H](O)[C@@H]1O [scutellarin]
- Autosampler for 24 h Accuracy (%) ([1]; 50 ng/mL): 102.0%
- Freeze thaw cycles Accuracy (%) ([1]; 50 ng/mL): 102.0%
